# Assay results reported in patent US20040002117.
# Assays:
# [1] = target: T1, HA-tagged wild type NFAT1 (UniProt Q60591)
# T1 sequence: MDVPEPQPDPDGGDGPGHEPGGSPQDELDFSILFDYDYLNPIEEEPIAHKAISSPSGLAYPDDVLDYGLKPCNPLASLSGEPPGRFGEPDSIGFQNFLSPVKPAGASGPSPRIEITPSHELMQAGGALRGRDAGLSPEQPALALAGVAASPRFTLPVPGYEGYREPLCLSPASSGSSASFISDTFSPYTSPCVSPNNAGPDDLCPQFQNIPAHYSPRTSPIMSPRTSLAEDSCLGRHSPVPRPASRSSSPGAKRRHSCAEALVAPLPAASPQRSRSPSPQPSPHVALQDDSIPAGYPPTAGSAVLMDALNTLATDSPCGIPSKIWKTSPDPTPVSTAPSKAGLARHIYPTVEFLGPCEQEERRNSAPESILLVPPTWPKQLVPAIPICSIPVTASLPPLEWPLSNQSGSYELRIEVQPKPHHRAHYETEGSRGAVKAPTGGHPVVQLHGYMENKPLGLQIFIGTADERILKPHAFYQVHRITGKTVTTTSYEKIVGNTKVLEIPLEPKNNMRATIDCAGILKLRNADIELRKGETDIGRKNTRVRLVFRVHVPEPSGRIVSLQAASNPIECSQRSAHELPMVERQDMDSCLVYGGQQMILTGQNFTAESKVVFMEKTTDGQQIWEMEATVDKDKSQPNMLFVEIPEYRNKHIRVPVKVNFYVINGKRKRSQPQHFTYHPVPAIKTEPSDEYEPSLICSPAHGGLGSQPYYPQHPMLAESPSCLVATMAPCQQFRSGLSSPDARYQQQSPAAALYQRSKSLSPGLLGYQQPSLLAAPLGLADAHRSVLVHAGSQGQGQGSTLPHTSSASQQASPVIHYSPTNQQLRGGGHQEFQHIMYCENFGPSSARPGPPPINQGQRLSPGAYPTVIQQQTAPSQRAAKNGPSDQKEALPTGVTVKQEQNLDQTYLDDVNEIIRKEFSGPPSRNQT
# [2] = target: T2, HA-tagged triple CM2 mutant NFAT1 (UniProt Q60591)
# T2 sequence: T1 sequence with R112A, E114A, T116A
substance,measurement,setting,value
calcineurin,"in vitro dephosphorylation of NFAT1 in HeLa cytoplasmic extracts by exogenous calcineurin/calmodulin (SDS-PAGE shift, anti-HA Western blot)",[1],Dephosphorylation of wild type NFAT1 was apparent with 200 nM calcineurin
same,"in vitro dephosphorylation of NFAT1 in HeLa cytoplasmic extracts by exogenous calcineurin/calmodulin (SDS-PAGE shift, anti-HA Western blot)",[2],"the triple CM2 mutant was markedly less sensitive, with only partial dephosphorylation occurring in the presence of 2.5 µM calcineurin"

# Residue numbers refer to the chain shown, from its start.
